Amino acid sequences for entries named in this document (tags omitted). A change or cut given only in a name is not applied to a line headed by its entry.
UniProt Q01726: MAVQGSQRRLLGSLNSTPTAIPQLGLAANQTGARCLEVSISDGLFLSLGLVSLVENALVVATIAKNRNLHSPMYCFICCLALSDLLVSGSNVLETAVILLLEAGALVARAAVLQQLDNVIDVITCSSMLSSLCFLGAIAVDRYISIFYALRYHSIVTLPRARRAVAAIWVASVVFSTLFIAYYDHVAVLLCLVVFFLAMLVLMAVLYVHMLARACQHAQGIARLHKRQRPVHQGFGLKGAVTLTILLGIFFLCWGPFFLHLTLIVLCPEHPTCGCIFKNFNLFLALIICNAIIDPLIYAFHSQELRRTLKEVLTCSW

According to patent US6902933B2, “Surface transfection and expression procedure” (Regents of the University of Michigan, priority 2000, dated 2005):

Biological target: human MC1R (Homo sapiens, UniProt Q01726)
Test: hMCR1-mediated activation of transcription factors by αMSH, luciferase reporter vectors
Settings: αMSH 10^−7M, 6 hours; pCRE-, pAP1-, pAP1 (PMA)-Luciferase and pTal-Luciferase; FIG. 9

αMSH
luciferase activity fold induction versus untreated transfected cells: specificity of αMSH for hMCR1-mediated activation of transcription factors
